Experimental findings from patent US20240166617A1, “PHOSPHOINOSITIDE 3 KINASE BETA INHIBITORS AND COMPOSITIONS AND METHODS THEREOF” (Geode Therapeutics Inc., priority 2021, published 2024) are described below.

By UniProt entry, the sequences of proteins in these tests, tags left out.
UniProt P42336, whole entry: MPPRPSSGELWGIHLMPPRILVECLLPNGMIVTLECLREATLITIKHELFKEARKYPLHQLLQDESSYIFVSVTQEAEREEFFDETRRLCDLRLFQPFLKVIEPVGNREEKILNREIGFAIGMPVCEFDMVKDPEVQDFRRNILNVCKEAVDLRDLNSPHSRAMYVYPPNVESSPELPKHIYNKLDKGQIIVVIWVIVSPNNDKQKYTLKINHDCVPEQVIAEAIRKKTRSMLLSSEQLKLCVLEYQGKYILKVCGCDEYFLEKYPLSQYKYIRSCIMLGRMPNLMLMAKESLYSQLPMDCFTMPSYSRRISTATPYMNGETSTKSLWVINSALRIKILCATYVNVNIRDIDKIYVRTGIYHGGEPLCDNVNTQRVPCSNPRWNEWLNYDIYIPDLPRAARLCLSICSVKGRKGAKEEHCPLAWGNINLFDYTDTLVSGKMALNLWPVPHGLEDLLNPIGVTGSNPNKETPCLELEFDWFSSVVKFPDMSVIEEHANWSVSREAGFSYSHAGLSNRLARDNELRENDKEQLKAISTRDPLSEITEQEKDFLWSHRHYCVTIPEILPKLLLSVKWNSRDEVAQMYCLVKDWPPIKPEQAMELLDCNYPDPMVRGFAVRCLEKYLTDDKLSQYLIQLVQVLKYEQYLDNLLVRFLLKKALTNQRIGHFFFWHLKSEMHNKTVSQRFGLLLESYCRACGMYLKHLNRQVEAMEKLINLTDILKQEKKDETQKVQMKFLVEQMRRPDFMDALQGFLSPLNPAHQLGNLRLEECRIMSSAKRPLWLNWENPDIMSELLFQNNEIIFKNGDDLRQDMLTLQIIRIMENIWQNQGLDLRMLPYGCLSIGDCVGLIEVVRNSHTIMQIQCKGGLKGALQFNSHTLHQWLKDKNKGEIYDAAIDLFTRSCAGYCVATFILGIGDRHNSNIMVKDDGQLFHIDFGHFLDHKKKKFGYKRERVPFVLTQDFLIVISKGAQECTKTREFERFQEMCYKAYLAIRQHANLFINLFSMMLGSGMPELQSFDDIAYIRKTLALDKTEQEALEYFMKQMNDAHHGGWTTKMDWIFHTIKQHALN
UniProt P42338, whole entry: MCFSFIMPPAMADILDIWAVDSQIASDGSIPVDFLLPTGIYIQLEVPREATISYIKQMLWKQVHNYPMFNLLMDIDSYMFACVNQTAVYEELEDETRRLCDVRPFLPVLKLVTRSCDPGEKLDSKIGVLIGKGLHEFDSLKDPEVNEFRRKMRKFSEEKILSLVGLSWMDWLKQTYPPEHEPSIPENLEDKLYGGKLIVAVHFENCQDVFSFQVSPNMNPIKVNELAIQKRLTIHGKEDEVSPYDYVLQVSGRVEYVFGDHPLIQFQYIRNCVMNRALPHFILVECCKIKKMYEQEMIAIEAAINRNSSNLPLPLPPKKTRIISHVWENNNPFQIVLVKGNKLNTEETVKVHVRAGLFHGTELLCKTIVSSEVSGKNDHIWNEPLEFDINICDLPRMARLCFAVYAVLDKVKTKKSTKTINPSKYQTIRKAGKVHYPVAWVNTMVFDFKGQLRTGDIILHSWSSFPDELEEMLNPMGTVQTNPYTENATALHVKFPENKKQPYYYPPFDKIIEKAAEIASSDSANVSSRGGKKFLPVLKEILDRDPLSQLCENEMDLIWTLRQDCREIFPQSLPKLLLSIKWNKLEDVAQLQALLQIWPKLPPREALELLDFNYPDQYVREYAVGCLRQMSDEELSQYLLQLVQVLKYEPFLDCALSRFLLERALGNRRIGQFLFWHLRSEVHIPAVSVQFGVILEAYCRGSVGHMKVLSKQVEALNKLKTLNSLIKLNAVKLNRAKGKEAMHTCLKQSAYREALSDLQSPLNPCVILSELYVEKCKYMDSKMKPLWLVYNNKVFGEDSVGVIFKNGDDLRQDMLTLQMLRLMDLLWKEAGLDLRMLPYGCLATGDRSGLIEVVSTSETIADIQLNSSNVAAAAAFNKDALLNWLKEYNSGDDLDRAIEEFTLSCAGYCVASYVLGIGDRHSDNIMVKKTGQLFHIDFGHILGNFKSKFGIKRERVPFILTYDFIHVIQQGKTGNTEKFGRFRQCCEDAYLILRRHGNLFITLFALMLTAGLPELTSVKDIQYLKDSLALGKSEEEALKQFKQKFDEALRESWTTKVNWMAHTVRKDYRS
UniProt O00329, whole entry: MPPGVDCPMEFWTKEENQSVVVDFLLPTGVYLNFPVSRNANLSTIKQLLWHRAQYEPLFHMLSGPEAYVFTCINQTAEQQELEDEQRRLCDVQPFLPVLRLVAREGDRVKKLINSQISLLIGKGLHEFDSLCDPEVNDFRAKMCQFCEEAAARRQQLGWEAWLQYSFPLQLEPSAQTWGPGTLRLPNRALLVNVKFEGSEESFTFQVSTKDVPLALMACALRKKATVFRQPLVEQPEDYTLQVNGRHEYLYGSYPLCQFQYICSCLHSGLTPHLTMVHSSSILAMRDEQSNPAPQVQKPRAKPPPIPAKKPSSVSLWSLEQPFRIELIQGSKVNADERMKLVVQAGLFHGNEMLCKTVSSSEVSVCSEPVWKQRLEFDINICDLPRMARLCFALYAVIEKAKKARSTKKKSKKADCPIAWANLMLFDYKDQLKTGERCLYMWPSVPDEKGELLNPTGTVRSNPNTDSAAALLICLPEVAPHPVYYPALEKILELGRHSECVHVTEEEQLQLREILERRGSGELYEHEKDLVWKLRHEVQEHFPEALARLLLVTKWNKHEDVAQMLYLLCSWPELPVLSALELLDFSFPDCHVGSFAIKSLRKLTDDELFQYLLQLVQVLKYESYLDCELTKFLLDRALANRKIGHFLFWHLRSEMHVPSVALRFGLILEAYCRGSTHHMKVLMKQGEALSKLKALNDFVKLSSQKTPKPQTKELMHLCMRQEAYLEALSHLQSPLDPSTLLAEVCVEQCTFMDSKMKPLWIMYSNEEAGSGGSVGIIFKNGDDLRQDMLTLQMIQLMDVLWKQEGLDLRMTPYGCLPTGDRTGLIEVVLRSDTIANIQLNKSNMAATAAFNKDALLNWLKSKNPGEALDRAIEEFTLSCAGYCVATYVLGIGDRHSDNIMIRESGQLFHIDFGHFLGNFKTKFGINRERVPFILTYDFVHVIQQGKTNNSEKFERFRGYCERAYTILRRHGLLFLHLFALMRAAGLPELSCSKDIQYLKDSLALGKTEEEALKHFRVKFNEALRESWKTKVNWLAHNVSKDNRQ
UniProt P48736, whole entry: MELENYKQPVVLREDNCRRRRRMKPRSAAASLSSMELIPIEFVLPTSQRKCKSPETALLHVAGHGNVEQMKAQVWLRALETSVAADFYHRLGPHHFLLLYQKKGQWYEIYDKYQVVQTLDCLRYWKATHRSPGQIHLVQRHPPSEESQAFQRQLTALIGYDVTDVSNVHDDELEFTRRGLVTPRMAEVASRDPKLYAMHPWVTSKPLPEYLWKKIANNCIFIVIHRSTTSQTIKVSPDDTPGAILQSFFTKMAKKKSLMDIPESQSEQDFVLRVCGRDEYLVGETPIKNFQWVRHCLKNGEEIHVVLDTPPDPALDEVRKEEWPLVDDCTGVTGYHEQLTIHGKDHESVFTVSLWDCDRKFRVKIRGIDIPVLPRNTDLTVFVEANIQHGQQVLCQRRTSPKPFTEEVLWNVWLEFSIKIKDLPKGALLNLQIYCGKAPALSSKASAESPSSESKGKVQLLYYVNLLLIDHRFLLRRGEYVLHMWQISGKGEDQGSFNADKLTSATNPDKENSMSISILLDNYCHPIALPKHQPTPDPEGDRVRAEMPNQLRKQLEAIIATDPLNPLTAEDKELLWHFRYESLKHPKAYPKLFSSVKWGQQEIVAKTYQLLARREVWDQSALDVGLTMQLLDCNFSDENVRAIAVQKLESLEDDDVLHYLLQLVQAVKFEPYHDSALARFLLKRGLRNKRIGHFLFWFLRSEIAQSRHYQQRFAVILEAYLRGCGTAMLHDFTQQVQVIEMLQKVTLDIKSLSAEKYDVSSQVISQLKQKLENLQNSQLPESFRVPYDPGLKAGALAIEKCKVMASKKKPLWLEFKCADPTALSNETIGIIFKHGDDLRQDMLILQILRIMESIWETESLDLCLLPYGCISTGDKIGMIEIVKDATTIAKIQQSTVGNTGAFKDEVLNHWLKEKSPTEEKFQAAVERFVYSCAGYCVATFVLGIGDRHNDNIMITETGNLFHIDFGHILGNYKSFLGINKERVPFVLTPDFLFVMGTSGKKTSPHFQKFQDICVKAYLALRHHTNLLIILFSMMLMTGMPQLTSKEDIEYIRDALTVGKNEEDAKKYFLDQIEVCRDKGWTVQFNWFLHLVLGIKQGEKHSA

A value given as a limit tells only on which side of the number the result lay.

The Kd is the concentration at which binding is half-saturated.

Common to all, as to test: Enzyme binding assay (KINOMEscan)
In one assay the target is PIK3Ca_h (Homo sapiens, UniProt P42336). The settings on record: read-out: Kd(nM) PIK3Ca_h, Eurofins DiscoveRx.
The next assay has as its target PIK3Cb_h (Homo sapiens, UniProt P42338). The settings on record: read-out: Kd (nM) PIK3Cb_h, Eurofins DiscoveRx.
A further assay concerns the target PIK3Cd_h (Homo sapiens, UniProt O00329). Conditions: read-out: Kd(nM) PIK3Cd_h, Eurofins DiscoveRx.
Another assay addresses PIK3Cg_h (Homo sapiens, UniProt P48736). Conditions: read-out: Kd(nM) PIK3Cg_h, Eurofins DiscoveRx.

In the case of `CC(Nc1cc(F)cc(F)c1)c1cc(C(=O)N2CCC(N(C)C)C2)cn2c(=O)cc(N3CCOCC3)nc12` (stereo not shown), the Kd on PIK3Ca_h was > 10000 nM; at PIK3Cb_h, 740 nM; on PIK3Cd_h it was > 10000 nM; at PIK3Cg_h it was > 10000 nM.
